Assay results: patent US10696677B2 (Research Triangle Institute, priority 2016, dated 2020)

Sequences of proteins named here, by UniProt entry; tags and fusion partners are left off.
UniProt P21554, whole entry: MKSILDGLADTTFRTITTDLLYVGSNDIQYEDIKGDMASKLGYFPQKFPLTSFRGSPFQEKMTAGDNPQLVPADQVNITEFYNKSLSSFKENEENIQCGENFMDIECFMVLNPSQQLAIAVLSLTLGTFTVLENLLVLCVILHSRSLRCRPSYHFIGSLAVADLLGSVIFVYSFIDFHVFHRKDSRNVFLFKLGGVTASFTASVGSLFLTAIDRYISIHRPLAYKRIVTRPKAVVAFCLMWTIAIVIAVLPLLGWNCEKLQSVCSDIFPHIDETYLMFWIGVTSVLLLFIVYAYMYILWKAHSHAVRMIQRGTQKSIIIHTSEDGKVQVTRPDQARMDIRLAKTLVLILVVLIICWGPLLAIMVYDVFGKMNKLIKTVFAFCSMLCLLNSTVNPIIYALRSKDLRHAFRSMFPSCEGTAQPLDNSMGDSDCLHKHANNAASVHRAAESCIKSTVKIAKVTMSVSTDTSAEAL

What was measured:
[1] = test system: MDCK; test: MDCK BBB Assay; assay type: in vitro ADME; details: MDCK cells
[2] = target: hCB1 (Homo sapiens, UniProt P21554); test: radioligand displacement binding at CB1 (membranes of CHO-K1 cells over-expressing receptor); details: CB1 versus CB2

SMILES	MDCK BBB Assay (Basolateral/Apical Peak Area Ratio) Mean [1]	CB2 Ki/CB1 Ki selectivity ratio [2]
O=C(NC1CCCC1)N1CCN(c2ncnc3c2nc(-c2ccccc2Cl)n3-c2ccc(Cl)cc2)CC1 [Compound 117, 4-[8-(2-Chlorophenyl)-9-(4-chlorophenyl)-9H-purin-6-yl]-N-cyclopentylpiperazine-1-carboxamide]	0.03	150
O=C(NCC1CCCCC1)N1CCN(c2ncnc3c2nc(-c2ccccc2Cl)n3-c2ccc(Cl)cc2)CC1 [Compound 120, 4-[8-(2-chlorophenyl)-9-(4-chlorophenyl)-9H-purin-6-yl]-N-(cyclohexylmethyl)piperazine-1-carboxamide]		17
O=C(Nc1ccccc1)N1CCN(c2ncnc3c2nc(-c2ccccc2Cl)n3-c2ccc(Cl)cc2)CC1 [Compound 121, 4-[8-(2-chlorophenyl)-9-(4-chlorophenyl)-9H-purin-6-yl]-N-phenylpiperazine-1-carboxamide]		400
O=C(Nc1ccc(F)cc1)N1CCN(c2ncnc3c2nc(-c2ccccc2Cl)n3-c2ccc(Cl)cc2)CC1 [Compound 43, 4-[8-(2-Chlorophenyl)-9-(4-chlorophenyl)-9H-purin-6-yl]-N-(4-fluorophenyl)piperazine-1-carboxamide]		110
O=C(NC1(C(F)(F)F)CCCC1)N1CCN(c2ncnc3c2nc(-c2ccccc2Cl)n3-c2ccc(Cl)cc2)CC1 [Compound 118, 4-[8-(2-Chlorophenyl)-9-(4-chlorophenyl)-9H-purin-6-yl]-N-[1-(trifluoromethyl)cyclopentyl]piperazine-1-carboxamide]		54
O=C(NC1CCCCC1)N1CCN(c2ncnc3c2nc(-c2ccccc2Cl)n3-c2ccc(Cl)cc2)CC1 [Compound 119, 4-[8-(2-chlorophenyl)-9-(4-chlorophenyl)-9H-purin-6-yl]-N-cyclohexylpiperazine-1-carboxamide]		440
O=C(Nc1ccc(F)c(F)c1)N1CCN(c2ncnc3c2nc(-c2ccccc2Cl)n3-c2ccc(Cl)cc2)CC1 [Compound 42, 4-[8-(2-Chlorophenyl)-9-(4-chlorophenyl)-9H-purin-6-yl]-N-(3,4-difluorophenyl)piperazine-1-carboxamide]	0.0001	840
CS(=O)(=O)N1CCN(c2ncnc3c2nc(-c2ccccc2Cl)n3-c2ccc(Cl)cc2)CC1 [Compound 86, 8-(2-Chlorophenyl)-9-(4-chlorophenyl)-6-[4-(methylsulfonyl)piperazin-1-yl]-9H-purine]	0.143	68
O=C(Nc1ccccc1F)N1CCN(c2ncnc3c2nc(-c2ccccc2Cl)n3-c2ccc(Cl)cc2)CC1 [Compound 56, 4-[8-(2-Chlorophenyl)-9-(4-chlorophenyl)-9H-purin-6-yl]-N-(2-fluorophenyl)piperazine-1-carboxamide]		220
O=C(Nc1ccccn1)N1CCN(c2ncnc3c2nc(-c2ccccc2Cl)n3-c2ccc(Cl)cc2)CC1 [Compound 122, 4-[8-(2-Chlorophenyl)-9-(4-chlorophenyl)-9H-purin-6-yl]-N-(pyridin-2-yl)piperazine-1-carboxamide]	0.012	1200
CC(C)CS(=O)(=O)N1CCN(c2ncnc3c2nc(-c2ccccc2Cl)n3-c2ccc(Cl)cc2)CC1 [Compound 82, 8-(2-Chlorophenyl)-9-(4-chlorophenyl)-6-{4-[(2-methylpropyl)sulfonyl]piperazin-1-yl}-9H-purine]	0.000	1407
CC(C)S(=O)(=O)N1CCN(c2ncnc3c2nc(-c2ccccc2Cl)n3-c2ccc(Cl)cc2)CC1 [Compound 80, 8-(2-Chlorophenyl)-9-(4-chlorophenyl)-6-{4-[(1-methylethyl)sulfonyl]piperazin-1-yl}-9H-purine]		699
